# Tests used:
# Amino acid sequences for entries named in this document (tags omitted). A change or cut given only in a name is not applied to a line headed by its entry.
# UniProt P33534: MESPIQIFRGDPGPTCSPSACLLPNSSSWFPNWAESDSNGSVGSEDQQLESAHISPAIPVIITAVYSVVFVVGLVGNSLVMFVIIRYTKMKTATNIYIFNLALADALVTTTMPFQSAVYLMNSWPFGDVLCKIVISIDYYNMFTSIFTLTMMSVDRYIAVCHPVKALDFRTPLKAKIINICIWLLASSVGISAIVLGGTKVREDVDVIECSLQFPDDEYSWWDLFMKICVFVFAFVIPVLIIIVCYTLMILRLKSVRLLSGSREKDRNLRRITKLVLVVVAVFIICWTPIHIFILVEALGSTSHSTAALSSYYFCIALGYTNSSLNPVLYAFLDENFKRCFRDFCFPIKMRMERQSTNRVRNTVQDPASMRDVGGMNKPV
# [1] = system: male Fisher F-344 rats; assay: Fentanyl intravenous self-administration
# [2] = system: male rats; assay: Cue-induced reinstatement of responding previously maintained by morphine or fentanyl; details: 10 mg/kg i.p.
# [3] = target: mKOR (Mus musculus, UniProt P33534); assay: [35S]GTPγS functional assay, mouse opioid receptors; type: biochemical; details: [35S]GTPγS binding assay
smiles,measurement,setting,value
"CCC1CC2CC3c4oc5ccc(O)cc5c4CCN(C2)C13 (single isomer, unassigned)",duration of statistically significant suppression of fentanyl intake,[1]; single 40 mg/kg i.p.,4 days
same,effect on fentanyl intake,[1]; single reset dose (40 mg/kg i.p.),reduced the intake of fentanyl for at least five days
same,cue-induced morphine reinstatement,[2],strongly reduced
same,reduction of cue-induced reinstatement responding (fentanyl),[2],approximately 60%
same,selectivity for KOR over DOR,[3],about seven-fold
same,selectivity for KOR versus MOR,[3],more than ten-fold

# From paper PMC11415492 (Nature Communications, 2024)
